{"source": "paper PMC5454592", "about": "“Pharmacological and Toxicological Properties of the Potent Oral γ-Secretase Modulator BPN-15606” (The Journal of Pharmacology and Experimental Therapeutics, 2017)", "origin": "cited, not measured here", "system": "Aβ42 in rat CSF", "conditions": "dose of 30 mg/kg; ref Blain et al., 2016; cited from earlier work", "data": [{"compound": "COc1nc(C2=NOC[C@H](c3cc4ccccc4o3)N2)ccc1-n1cnc(C)c1", "note": "(single isomer, unassigned)", "values": [{"measurement": "maximum reduction of Aβ42 in rat CSF", "value": 58, "unit": "%"}]}]}
